These are literature values, as cited in patent publication US20140364449A1 (priority 2012, published 2014).

The conditions of this data set: cited from earlier work.

Some compounds may have been tested in ways that are not shown here.

Take `CCC(=O)N(c1ccccc1)C1CCN(CCc2ccccc2)CC1`: the pKa value of the N-group is 8.4.
